According to US6936585B2, “Corticotropin releasing factor 2 receptor agonists” (priority 2002, dated 2005):

Columns and labels:
CRF1R = biological target: T1, CRF1R (Homo sapiens, UniProt P34998); test: CRF1R agonist activation (EC50 / Emax), called comparative CRF binding; format: cell-based; details: for Emax: read-out: CRF1R Emax
T1 sequence (P34998 24-415): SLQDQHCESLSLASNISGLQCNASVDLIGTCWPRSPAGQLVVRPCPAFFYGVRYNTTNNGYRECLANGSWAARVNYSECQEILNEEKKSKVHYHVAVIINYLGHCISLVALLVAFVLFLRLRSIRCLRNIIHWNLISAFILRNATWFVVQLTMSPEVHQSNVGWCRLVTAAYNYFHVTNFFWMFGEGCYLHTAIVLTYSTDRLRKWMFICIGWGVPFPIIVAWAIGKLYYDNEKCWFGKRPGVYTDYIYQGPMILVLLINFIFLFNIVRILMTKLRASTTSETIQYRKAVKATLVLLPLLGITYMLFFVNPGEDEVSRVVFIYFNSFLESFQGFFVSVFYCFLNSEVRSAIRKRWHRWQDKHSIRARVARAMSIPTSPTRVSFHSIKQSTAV
Summary of the method: (§1)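 Peptides are tested on cells bearing CRF1R or CRF2R, full length or as ligand-binding-domain constructs coupled to reporters or G proteins. Activation is scored by cAMP rise, measured in lysates or by CRE-reporter output, against vehicle control.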

CRF2R = biological target: T2, CRF2R (Homo sapiens, UniProt Q13324); test: CRF2R agonist activation (EC50 / Emax), called comparative CRF binding; format: cell-based; details: for Emax: read-out: CRF2R Emax
T2 sequence (Q13324 1-411): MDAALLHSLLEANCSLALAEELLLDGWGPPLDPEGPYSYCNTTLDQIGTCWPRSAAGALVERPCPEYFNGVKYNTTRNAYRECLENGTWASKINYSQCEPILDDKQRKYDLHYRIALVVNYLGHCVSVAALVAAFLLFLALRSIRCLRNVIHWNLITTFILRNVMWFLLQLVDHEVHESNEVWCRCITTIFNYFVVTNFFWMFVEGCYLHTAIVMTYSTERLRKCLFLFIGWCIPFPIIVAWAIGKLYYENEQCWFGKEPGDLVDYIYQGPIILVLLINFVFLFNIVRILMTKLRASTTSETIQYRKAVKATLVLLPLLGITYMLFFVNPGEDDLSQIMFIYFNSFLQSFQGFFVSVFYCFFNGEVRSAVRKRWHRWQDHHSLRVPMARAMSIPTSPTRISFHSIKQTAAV
Summary of the method: as §1

Row | Compound | Emax (CRF1R) [%] | Emax (CRF2R) [%] | EC50 (CRF1R; CRF1R EC50) [nM] | EC50 (CRF2R) [nM]
1 | CC[C@H](C)[C@H](NC(=O)[C@@H](NC(=O)[C@H](CC(=O)O)NC(=O)[C@H](CC(C)C)NC(=O)[C@H](CC(C)C)NC(=O)[C@H](CC(C)C)NC(=O)[C@H](CCCNC(=N)N)NC(=O)[C@H](CC(N)=O)NC(=O)[C@H](CC(N)=O)NC(=O)[C@H](C)NC(=O)[C@H](C)NC(=O)[C@H](CCC(N)=O)NC(=O)[C@H](CCC(N)=O)NC(=O)[C@H](CCCCN)NC(=O)[C@H](CCC(=O)O)NC(=O)[C@H](CCCCN)NC(=O)[C@H](CCC(=O)O)NC(=O)[C@H](CCC(N)=O)NC(=O)[C@H](CCCCN)NC(=O)[C@H](CCC(=O)O)NC(=O)[C@@H](NC(=O)[C@H](CCC(=O)O)NC(=O)[C@@H](NC(=O)[C@H](CCSC)NC(=O)[C@H](CCCCN)NC(=O)[C@H](CCCNC(=N)N)NC(=O)[C@H](CC(C)C)NC(=O)[C@H](CC(C)C)NC(=O)[C@@H](NC(=O)[C@H](Cc1ccc(O)cc1)NC(=O)[C@@H]1CCCN1C(=O)[C@H](CC(C)C)NC(=O)[C@H](CC(=O)O)NC(=O)[C@@H](NC(=O)[C@H](CO)NC(=O)[C@@H](NC(=O)[C@@H]1CCCN1C(=O)[C@@H]1CCCN1C(=O)CNC(=O)[C@@H]1CCC(=O)N1)[C@@H](C)CC)[C@@H](C)CC)[C@@H](C)CC)[C@@H](C)CC)[C@@H](C)CC)[C@@H](C)O)C(N)=O [compound 204] | 74 | 93 |  | 
2 | CC[C@H](C)[C@H](NC(=O)[C@@H](NC(=O)[C@H](CC(=O)O)NC(=O)[C@H](CC(C)C)NC(=O)[C@H](CC(C)C)NC(=O)[C@H](CC(C)C)NC(=O)[C@H](CCCNC(=N)N)NC(=O)[C@H](CC(N)=O)NC(=O)[C@H](CC(N)=O)NC(=O)[C@H](C)NC(=O)[C@H](C)NC(=O)[C@H](CCC(N)=O)NC(=O)[C@H](CCC(N)=O)NC(=O)[C@H](CCCCN)NC(=O)[C@H](CCC(=O)O)NC(=O)[C@H](CCCCN)NC(=O)[C@H](CCC(=O)O)NC(=O)[C@H](CCC(N)=O)NC(=O)[C@H](CCCCN)NC(=O)[C@H](CCC(=O)O)NC(=O)[C@@H](NC(=O)[C@H](CCC(=O)O)NC(=O)[C@@H](NC(=O)[C@H](CCSC)NC(=O)[C@H](CCCCN)NC(=O)[C@H](CCCNC(=N)N)NC(=O)[C@H](CC(C)C)NC(=O)[C@H](CC(C)C)NC(=O)[C@@H](NC(=O)[C@@H](NC(=O)[C@@H]1CCCN1C(=O)[C@H](CC(C)C)NC(=O)[C@H](CC(=O)O)NC(=O)[C@@H](NC(=O)[C@H](CO)NC(=O)[C@@H](NC(=O)[C@@H]1CCCN1C(=O)[C@@H]1CCCN1C(=O)CNC(=O)[C@@H]1CCC(=O)N1)[C@@H](C)CC)[C@@H](C)CC)[C@@H](C)CC)[C@@H](C)CC)[C@@H](C)CC)[C@@H](C)CC)[C@@H](C)O)C(N)=O [compound 36] | 33 | 73 |  | 
3 | CC[C@H](C)[C@H](NC(=O)[C@@H](NC(=O)[C@H](CC(=O)O)NC(=O)[C@H](CC(C)C)NC(=O)[C@H](CC(C)C)NC(=O)[C@H](CC(C)C)NC(=O)[C@H](CCCNC(=N)N)NC(=O)[C@H](CC(N)=O)NC(=O)[C@H](CC(N)=O)NC(=O)[C@H](C)NC(=O)[C@H](C)NC(=O)[C@H](CCC(N)=O)NC(=O)[C@H](CCC(N)=O)NC(=O)[C@H](CCCCN)NC(=O)[C@H](CCC(=O)O)NC(=O)[C@H](CCCCN)NC(=O)[C@H](CCC(=O)O)NC(=O)[C@H](CCC(N)=O)NC(=O)[C@H](CCCCN)NC(=O)[C@H](CCC(=O)O)NC(=O)[C@@H](NC(=O)[C@H](CCC(=O)O)NC(=O)[C@@H](NC(=O)[C@H](CCSC)NC(=O)[C@H](CCCCN)NC(=O)[C@H](CCCNC(=N)N)NC(=O)[C@H](CC(C)C)NC(=O)[C@H](CC(C)C)NC(=O)[C@H](CC(C)C)NC(=O)[C@H](CC(C)C)NC(=O)[C@@H]1CCCN1C(=O)[C@H](CC(C)C)NC(=O)[C@H](CC(=O)O)NC(=O)[C@@H](NC(=O)[C@H](CO)NC(=O)[C@@H](NC(=O)[C@@H]1CCCN1C(=O)[C@@H]1CCCN1C(=O)CNC(=O)[C@@H]1CCC(=O)N1)[C@@H](C)CC)[C@@H](C)CC)[C@@H](C)CC)[C@@H](C)CC)[C@@H](C)O)C(N)=O [compound 188] | 96 | 100 |  | 
4 | CC[C@H](C)[C@H](NC(=O)[C@H](CCCNC(=N)N)NC(=O)[C@H](C)NC(=O)[C@H](CC(C)C)NC(=O)[C@H](CC(C)C)NC(=O)[C@H](CCCNC(=N)N)NC(=O)[C@H](C)NC(=O)[C@H](CC(N)=O)NC(=O)[C@H](CC(N)=O)NC(=O)[C@H](C)NC(=O)[C@H](C)NC(=O)[C@H](CCC(N)=O)NC(=O)[C@H](CCC(N)=O)NC(=O)[C@H](CCCCN)NC(=O)[C@H](CCC(=O)O)NC(=O)[C@H](CCCCN)NC(=O)[C@H](CCC(=O)O)NC(=O)[C@H](CCC(N)=O)NC(=O)[C@H](CCCCN)NC(=O)[C@H](CCC(=O)O)NC(=O)[C@@H](NC(=O)[C@H](CCC(=O)O)NC(=O)[C@@H](NC(=O)[C@@H](NC(=O)[C@H](CCCCN)NC(=O)[C@H](CCCNC(=N)N)NC(=O)[C@H](CC(C)C)NC(=O)[C@H](CC(C)C)NC(=O)[C@H](CCC(N)=O)NC(=O)[C@H](Cc1ccccc1)NC(=O)[C@@H]1CCCN1C(=O)[C@@H](NC(=O)[C@H](CC(=O)O)NC(=O)[C@@H](NC(=O)[C@H](CO)NC(=O)[C@@H](NC(=O)[C@@H]1CCCN1C(=O)[C@@H]1CCCN1C(=O)CNC(=O)[C@@H]1CCC(=O)N1)[C@@H](C)CC)[C@@H](C)CC)C(C)C)C(C)C)[C@@H](C)CC)[C@@H](C)CC)C(N)=O [compound 383] | 55 | 96 | ≥ 1000 | 9.31
5 | CC[C@H](C)[C@H](NC(=O)[C@@H](NC(=O)[C@H](CC(=O)O)NC(=O)[C@H](CC(C)C)NC(=O)[C@H](CC(C)C)NC(=O)[C@H](CCCNC(=N)N)NC(=O)[C@H](C)NC(=O)[C@H](CC(N)=O)NC(=O)[C@H](CC(N)=O)NC(=O)[C@H](C)NC(=O)[C@H](C)NC(=O)[C@H](CCC(N)=O)NC(=O)[C@H](CCC(N)=O)NC(=O)[C@H](CCCCN)NC(=O)[C@H](CCC(=O)O)NC(=O)[C@H](CCCCN)NC(=O)[C@H](CCC(=O)O)NC(=O)[C@H](CCC(N)=O)NC(=O)[C@H](CCCCN)NC(=O)[C@H](CCC(=O)O)NC(=O)[C@@H](NC(=O)[C@H](CCC(=O)O)NC(=O)[C@@H](NC(=O)[C@@H](NC(=O)[C@H](CCCCN)NC(=O)[C@H](CCCNC(=N)N)NC(=O)[C@H](CC(C)C)NC(=O)[C@H](CC(C)C)NC(=O)[C@H](Cc1c[nH]cn1)NC(=O)[C@H](Cc1ccc(O)cc1)NC(=O)[C@@H]1CCCN1C(=O)[C@@H](NC(=O)[C@H](CC(=O)O)NC(=O)[C@@H](NC(=O)[C@H](CO)NC(=O)[C@@H](NC(=O)[C@@H]1CCCN1C(=O)[C@@H]1CCCN1C(=O)CNC(=O)[C@@H]1CCC(=O)N1)[C@@H](C)CC)[C@@H](C)CC)C(C)C)C(C)C)[C@@H](C)CC)[C@@H](C)CC)[C@@H](C)O)C(N)=O [compound 376] | 8 | 100 |  | 
6 | CC[C@H](C)[C@H](NC(=O)[C@@H](NC(=O)[C@H](CC(=O)O)NC(=O)[C@H](CC(C)C)NC(=O)[C@H](CC(C)C)NC(=O)[C@H](CC(C)C)NC(=O)[C@H](CCCNC(=N)N)NC(=O)[C@H](CC(N)=O)NC(=O)[C@H](CC(N)=O)NC(=O)[C@H](C)NC(=O)[C@H](C)NC(=O)[C@H](CCC(N)=O)NC(=O)[C@H](CCC(N)=O)NC(=O)[C@H](CCCCN)NC(=O)[C@H](CCC(=O)O)NC(=O)[C@H](CCCCN)NC(=O)[C@H](CCC(=O)O)NC(=O)[C@H](CCC(N)=O)NC(=O)[C@H](CCCCN)NC(=O)[C@H](CCC(=O)O)NC(=O)[C@@H](NC(=O)[C@H](CCC(=O)O)NC(=O)[C@@H](NC(=O)[C@H](CCSC)NC(=O)[C@H](CCCCN)NC(=O)[C@H](CCCNC(=N)N)NC(=O)[C@H](CC(C)C)NC(=O)[C@H](CC(C)C)NC(=O)[C@H](CCC(=O)O)NC(=O)[C@H](CC(C)C)NC(=O)[C@@H]1CCCN1C(=O)[C@H](CC(C)C)NC(=O)[C@H](CC(=O)O)NC(=O)[C@@H](NC(=O)[C@H](CO)NC(=O)[C@@H](NC(=O)[C@@H]1CCCN1C(=O)[C@@H]1CCCN1C(=O)CNC(=O)[C@@H]1CCC(=O)N1)[C@@H](C)CC)[C@@H](C)CC)[C@@H](C)CC)[C@@H](C)CC)[C@@H](C)O)C(N)=O [compound 82] | 85 | 90 |  | 
